The target in this experiment is BCL2 (Homo sapiens (Human), UniProt P10415). Description: Molecular level activity test of anti-apoptotic protein BCL2 (HTRF, binding to Bim peptide). The following applies: read-out: BCL2 nM (inhibitory activity, IC50).

The chains behind the UniProt entries cited, without tags or fusion partners.
UniProt P10415, whole entry: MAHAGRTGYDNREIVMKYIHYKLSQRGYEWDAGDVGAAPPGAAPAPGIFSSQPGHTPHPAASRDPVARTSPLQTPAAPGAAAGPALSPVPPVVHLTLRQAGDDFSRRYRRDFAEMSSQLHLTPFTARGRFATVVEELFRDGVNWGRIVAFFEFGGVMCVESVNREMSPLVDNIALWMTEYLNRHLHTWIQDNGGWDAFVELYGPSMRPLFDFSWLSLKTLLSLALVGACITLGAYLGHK

The results in this text go back to US20250034135A1, “ANTI-APOPTOTIC PROTEIN BCL-2 INHIBITOR, PHARMACEUTICAL COMPOSITION AND USES THEREOF” (HANGZHOU HEALZEN THERAPEUTICS CO., LTD., priority 2021, published 2025).

Broadly, the IC50 is the midpoint of a concentration-inhibition curve. In the case of `CC(C)c1ccccc1[C@@H]1CN(Cc2cccnc2)CCN1C1CC2(CCN(c3cc(Oc4cnc5[nH]ccc5c4)c(C(=O)NS(=O)(=O)c4ccc(NCC5(F)CCOCC5)c([N+](=O)[O-])c4)cc3F)CC2)C1`, the IC50 was < 10 nM. Next, `CC(C)c1ccccc1[C@@H]1CCCN1C1CC2(CCN(c3ccc(C(=O)NS(=O)(=O)c4cc([N+](=O)[O-])c(NC[C@H]5CC[C@](C)(O)CC5)c5[nH]cnc45)c(Oc4cnc5[nH]ccc5c4)c3)CC2)C1`: < 10 nM.
